Membrane permeability of cyclic peptides

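Lipid, pH, incubation time, direction and concentration are not recorded in the data file. The list need not hold all peptides of the study. Entries at the database's floor value (log10 P of -10) are not listed.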

PAMPA is the parallel artificial membrane permeability assay, which has no cells and reads passive diffusion.
Values are log10 P with P in cm/s, so -5 is more permeable than -7.

* CC(=O)N1CCC[C@@H]1C(=O)N(C)[C@@H](CC(C)C)C(=O)N[C@@H]1C(=O)N[C@H](CC(C)C)C(=O)N[C@@H](CC(C)C)C(=O)N(C)[C@H](CC(C)C)C(=O)N(C)[C@H](C)C(=O)N[C@@H](CC(C)C)C(=O)N2CCC[C@H]2C(=O)O[C@@H]1C: PAMPA -5.62 (log10 cm/s)
* CC(=O)N1CCC[C@@H]1C(=O)N(C)[C@@H](CC(C)C)C(=O)N[C@@H]1C(=O)N[C@H](CC(C)C)C(=O)N[C@H](CC(C)C)C(=O)N[C@H](CC(C)C)C(=O)N[C@H](C)C(=O)N[C@H](CC(C)C)C(=O)N2CCC[C@H]2C(=O)O[C@@H]1C: PAMPA -6.66 (log10 cm/s)
* CC(=O)N1CCC[C@H]1C(=O)N(C)[C@H](CC(C)C)C(=O)N[C@@H]1C(=O)N(C)[C@@H](CC(C)C)C(=O)N[C@@H](CC(C)C)C(=O)N[C@@H](CC(C)C)C(=O)N[C@@H](C)C(=O)N[C@H](CC(C)C)C(=O)N2CCC[C@@H]2C(=O)O[C@@H]1C: PAMPA -7.62 (log10 cm/s)
* CC(=O)N1CCC[C@H]1C(=O)N(C)[C@H](CC(C)C)C(=O)N[C@@H]1C(=O)N[C@@H](CC(C)C)C(=O)N(C)[C@H](CC(C)C)C(=O)N(C)[C@H](CC(C)C)C(=O)N(C)[C@@H](C)C(=O)N[C@H](CC(C)C)C(=O)N2CCC[C@@H]2C(=O)O[C@@H]1C: PAMPA -5.71 (log10 cm/s)
* CC(=O)N1CCC[C@H]1C(=O)N(C)[C@@H](CC(C)C)C(=O)N[C@@H]1C(=O)N(C)[C@H](CC(C)C)C(=O)N[C@H](CC(C)C)C(=O)N[C@H](CC(C)C)C(=O)N[C@H](C)C(=O)N[C@@H](CC(C)C)C(=O)N2CCC[C@H]2C(=O)O[C@@H]1C: PAMPA -6.06 (log10 cm/s)
* CC(=O)N1CCC[C@@H]1C(=O)N(C)[C@@H](CC(C)C)C(=O)N[C@@H]1C(=O)N[C@@H](CC(C)C)C(=O)N[C@@H](CC(C)C)C(=O)N[C@@H](CC(C)C)C(=O)N[C@@H](C)C(=O)N[C@@H](CC(C)C)C(=O)N2CCC[C@H]2C(=O)O[C@@H]1C: PAMPA -6.60 (log10 cm/s)
* CC(=O)N1CCC[C@@H]1C(=O)N(C)[C@H](CC(C)C)C(=O)N[C@@H]1C(=O)N[C@H](CC(C)C)C(=O)N(C)[C@H](CC(C)C)C(=O)N(C)[C@@H](CC(C)C)C(=O)N(C)[C@H](C)C(=O)N[C@@H](CC(C)C)C(=O)N2CCC[C@H]2C(=O)O[C@@H]1C: PAMPA -5.48 (log10 cm/s)
* CC(=O)N1CCC[C@H]1C(=O)N[C@@H]1C(=O)N[C@H](CC(C)C)C(=O)N[C@H](CC(C)C)C(=O)N[C@H](CC(C)C)C(=O)N(C)[C@H](CC(C)C)C(=O)N(C)[C@@H](C)C(=O)N[C@@H](CC(C)C)C(=O)N2CCC[C@@H]2C(=O)O[C@@H]1C: PAMPA -5.67 (log10 cm/s)
* CC(=O)N1CCC[C@@H]1C(=O)N(C)[C@@H](CC(C)C)C(=O)N[C@@H]1C(=O)N(C)[C@H](CC(C)C)C(=O)N(C)[C@H](CC(C)C)C(=O)N(C)[C@@H](CC(C)C)C(=O)N(C)[C@@H](C)C(=O)N[C@@H](CC(C)C)C(=O)N2CCC[C@@H]2C(=O)O[C@@H]1C: PAMPA -5.42 (log10 cm/s)
* CC(=O)N1CCC[C@@H]1C(=O)N(C)[C@H](CC(C)C)C(=O)N[C@@H]1C(=O)N(C)[C@@H](CC(C)C)C(=O)N[C@@H](CC(C)C)C(=O)N(C)[C@@H](CC(C)C)C(=O)N(C)[C@H](C)C(=O)N[C@@H](CC(C)C)C(=O)N2CCC[C@H]2C(=O)O[C@@H]1C: PAMPA -5.46 (log10 cm/s)
* CC(=O)N1CCC[C@@H]1C(=O)N(C)[C@@H](CC(C)C)C(=O)N[C@@H]1C(=O)N(C)[C@@H](CC(C)C)C(=O)N[C@@H](CC(C)C)C(=O)N(C)[C@@H](CC(C)C)C(=O)N(C)[C@@H](C)C(=O)N[C@H](CC(C)C)C(=O)N2CCC[C@H]2C(=O)O[C@@H]1C: PAMPA -6.92 (log10 cm/s)
* CC(=O)N1CCC[C@@H]1C(=O)N(C)[C@@H](CC(C)C)C(=O)N[C@@H]1C(=O)N[C@@H](CC(C)C)C(=O)N[C@@H](CC(C)C)C(=O)N[C@H](CC(C)C)C(=O)N(C)[C@@H](C)C(=O)N[C@@H](CC(C)C)C(=O)N2CCC[C@H]2C(=O)O[C@@H]1C: PAMPA -5.74 (log10 cm/s)
* CC(=O)N1CCC[C@H]1C(=O)N(C)[C@H](CC(C)C)C(=O)N[C@@H]1C(=O)N(C)[C@@H](CC(C)C)C(=O)N(C)[C@@H](CC(C)C)C(=O)N[C@@H](CC(C)C)C(=O)N(C)[C@H](C)C(=O)N[C@@H](CC(C)C)C(=O)N2CCC[C@@H]2C(=O)O[C@@H]1C: PAMPA -5.32 (log10 cm/s)
* CC(=O)N1CCC[C@H]1C(=O)N(C)[C@@H](CC(C)C)C(=O)N[C@@H]1C(=O)N(C)[C@H](CC(C)C)C(=O)N[C@H](CC(C)C)C(=O)N(C)[C@@H](CC(C)C)C(=O)N(C)[C@H](C)C(=O)N[C@H](CC(C)C)C(=O)N2CCC[C@H]2C(=O)O[C@@H]1C: PAMPA -6.09 (log10 cm/s)
* CC(=O)N[C@@H]1C(=O)N2CCC[C@H]2C(=O)N(C)[C@H](CC(C)C)C(=O)N[C@@H](CC(C)C)C(=O)N[C@H](CC(C)C)C(=O)N[C@H](CC(C)C)C(=O)N[C@@H](C)C(=O)N[C@@H](CC(C)C)C(=O)N2CCC[C@@H]2C(=O)O[C@@H]1C: PAMPA -7.45 (log10 cm/s)
* CC(=O)N1CCC[C@H]1C(=O)N[C@@H]1C(=O)N(C)[C@H](CC(C)C)C(=O)N[C@H](CC(C)C)C(=O)N[C@@H](CC(C)C)C(=O)N(C)[C@@H](CC(C)C)C(=O)N[C@@H](C)C(=O)N[C@@H](CC(C)C)C(=O)N2CCC[C@@H]2C(=O)O[C@@H]1C: PAMPA -5.98 (log10 cm/s)
* CC(=O)N1CCC[C@H]1C(=O)N(C)[C@@H](CC(C)C)C(=O)N[C@@H]1C(=O)N(C)[C@H](CC(C)C)C(=O)N[C@@H](CC(C)C)C(=O)N(C)[C@H](CC(C)C)C(=O)N(C)[C@@H](C)C(=O)N[C@@H](CC(C)C)C(=O)N2CCC[C@@H]2C(=O)O[C@@H]1C: PAMPA -5.25 (log10 cm/s)
* CC(=O)N1CCC[C@@H]1C(=O)N(C)[C@@H](CC(C)C)C(=O)N[C@@H]1C(=O)N[C@@H](CC(C)C)C(=O)N(C)[C@@H](CC(C)C)C(=O)N[C@@H](CC(C)C)C(=O)N(C)[C@H](C)C(=O)N[C@H](CC(C)C)C(=O)N2CCC[C@@H]2C(=O)O[C@@H]1C: PAMPA -5.16 (log10 cm/s)

Repeated from above, the 2 entries with the highest PAMPA:

| compound | PAMPA (log10 cm/s) |
|---|---|
| CC(=O)N1CCC[C@@H]1C(=O)N(C)[C@@H](CC(C)C)C(=O)N[C@@H]1C(=O)N[C@@H](CC(C)C)C(=O)N(C)[C@@H](CC(C)C)C(=O)N[C@@H](CC(C)C)C(=O)N(C)[C@H](C)C(=O)N[C@H](CC(C)C)C(=O)N2CCC[C@@H]2C(=O)O[C@@H]1C | -5.16 |
| CC(=O)N1CCC[C@H]1C(=O)N(C)[C@@H](CC(C)C)C(=O)N[C@@H]1C(=O)N(C)[C@H](CC(C)C)C(=O)N[C@@H](CC(C)C)C(=O)N(C)[C@H](CC(C)C)C(=O)N(C)[C@@H](C)C(=O)N[C@@H](CC(C)C)C(=O)N2CCC[C@@H]2C(=O)O[C@@H]1C | -5.25 |

Data: CycPeptMPDB; original report Kelly et al. 2021, doi:10.1021/jacs.0c06115.